In assay [1] the target is hDM2 1-188, Q00987.
The target in assay [2] is hDM2 1-188, Q00987. Nature of the assay: direct fluorescence polarization.
For assay [3], the target named is hDM2 1-188, Q00987. Nature of the assay: competition FP against p53AD^Flu.

Like-named read-outs stand apart in the source and are kept apart here.

B1: fluorescein-labeled p53AD15-31 peptide, P04637 15-31 (peptide)
peptide: not shown
modifications: not checked
The Kd is the free concentration of one partner at which half of the binding sites on the other are occupied at equilibrium, for simple one-to-one binding. In the case of B1, the dissociation constant (Kd) with hDM2 1-188, Q00987 [1] was determined as 230 nM; in the assay with hDM2 1-188, Q00987 [2], 340 nM.

B2: p53AD15-31, P04637 15-31 (peptide)
peptide: not shown
modifications: not checked
What is called IC50 is the midpoint of a concentration-inhibition curve. Low values mean greater potency, high ones weaker potency. As to B2, the half-inhibitory concentration (IC50) with hDM2 1-188, Q00987 [1] was found to be 2500 nM; with hDM2 1-188, Q00987 [3], 2470 nM.

(Values after patent publication US8008262.)
